Columns and labels:
NPNDx2 peptide = NPNDx2 peptide (Plasmodium berghei); assay: ITC; settings: both partners purified
NPNDx1 peptide = NPNDx1 peptide (Plasmodium berghei); assay: ITC; settings: both partners purified

B1: 3D11 Fab H-58/73 germline-reverted mutant (Fab, V domains shown)
VH: QAYLQQSGAELVRSGASVKMSCKASGYTFTSYNMHWVKQTPGQGLEWIGYIYPGNGVTSFNQKFKGKATLTADKSSSTAYMQISSLTSEDSAVYFCASAAYWGQGTLVTVSS
VL: not shown
NPNDx2 peptide
  Kd: 140 nM
NPNDx1 peptide
  Kd: 160 nM

— article PMC7704109 (eLife, 2020)
